Tested on: mice
Assay: Spontaneous locomotor activity
Details: D2AAK4 100 mg/kg i.p.; amphetamine 5 mg/kg s.c.; versus control group

O=C(Nc1ccccc1O)C1CCN(CCCn2c(=O)[nH]c3ccccc32)CC1 [D2AAK4, N-(2-hydroxyphenyl)-1-[3-(2-oxo-2,3-dihydro-1H-benzimidazol-1-yl)propyl]piperidine-4-carboxamide]
spontaneous locomotor activity (distance traveled, 30 min): did not significantly change locomotor activity

C[C@H](N)Cc1ccccc1.C[C@H](N)Cc1ccccc1.O=S(=O)(O)O [amphetamine, d-amphetamine sulphate, reference compound]
spontaneous locomotor activity (distance traveled, 30 min): increased the locomotor activity

From publication PMC7072648, “N-(2-Hydroxyphenyl)-1-[3-(2-oxo-2,3-dihydro-1H- benzimidazol-1-yl)propyl]piperidine-4-Carboxamide (D2AAK4), a Multi-Target Ligand of Aminergic GPCRs, as a Potential Antipsychotic” (Biomolecules, 2020)
